T1: MYO1G (HA-2 REF; MYO1G(V) variant) peptide on HLA-A*02:01 (human)
T1 peptide: YIGEVLVSV

B1: HA2-MJ1-DP1 (TCR, V domains shown)
Valpha: SQELEQSPQSLIVQEGKNLTINCTSSKTLYGLYWYKQKYGEGLIFLMMLQKGGEEKSHEKITAKLDEKKQQSSLHITASQPRHAGIYLCGARKKNYGGSQGNLIFGKGTKLSVKP
Vbeta: GAGVSQSPRYKVAKRGQDVALRCDPISGHVSLFWYQQALGQGPEFLTYFQNEAQLDKSGLPSDRFFAERPEGSVSTLKIQRTQQEDSAVYLCASSSGPTSPQHFGDGTRLSIL
B2: HA2-MJ1-DP57 (TCR, V domains shown)
Valpha: QKEVEQNSGPLSVPEGAIASLNCTYSDRGSQSFFWYRQYSGKSPELIMFIYSNGDKEDGRFTAQLNKASQYVSLLIRDSQPSDSATYLCAVNKGGGTSYGKLTFGQGTILTVHP
Vbeta: EAQVTQNPRYLITVTGKKLTVTCSQNMNHEYMSWYRQDPGLGLRQIYYSMNVEVTDKGDVPEGYKVSRKEKRNFPLILESPSPNQTSLYFCASSWTLNTEAFFGQGTRLTVV
B3: HA2-MJ1-DP2 (TCR, V domains shown)
Valpha: AQSVAQPEDQVNVAEGNPLTVKCTYSVSGNPYLFWYVQYPNRGLQFLLKYITGDNLVKGSYGFEAEFNKSQTSFHLKKPSALVSDSALYFCAVRDPGNYGQNFVFGPGTRLSVLP
Vbeta: DTGVSQDPRHKITKRGQNVTFRCDPISEHNRLYWYRQTLGQGPEFLTYFQNEAQLEKSRLLSDRFSAERPKGSFSTLEIQRTEQGDSAMYLCASSLLGHTQETQYFGPGTRLLVL
B4: HA2-MJ1-DP37 (TCR, V domains shown)
Valpha: EDKVVQSPLSLVVHEGDTVTLNCSYEVTNFRSLLWYKQEKKAPTFLFMLTSSGIEKKSGRLSSILDKKELFSILNITATQTGDSAIYLCAVEAGYGGSQGNLIFGKGTKLSVKP
Vbeta: NAGVMQNPRHLVRRRGQEARLRCSPMKGHSHVYWYRQLPEEGLKFMVYLQKENIIDESGMPKERFSAEFPKEGPSILRIQQVVRGDSAAYFCASSPRTGGIGNTIYFGEGSWLTVV
B5: HA2-MJ3-DP12 (TCR, V domains shown)
Valpha: TQLLEQSPQFLSIQEGENLTVYCNSSSVFSSLQWYRQEPGEGPVLLVTVVTGGEVKKLKRLTFQFGDARKDSSLHITAAQTGDTGLYLCAGAGMNYGGSQGNLIFGKGTKLSVKP
Vbeta: NAGVMQNPRHLVRRRGQEARLRCSPMKGHSHVYWYRQLPEEGLKFMVYLQKENIIDESGMPKERFSAEFPKEGPSILRIQQVVRGDSAAYFCASSLTSGRLNEQFFGPGTRLTVL
B6: HA2-MJ2-DP8 (TCR, V domains shown)
Valpha: KNEVEQSPQNLTAQEGEFITINCSYSVGISALHWLQQHPGGGIVSLFMLSSGKKKHGRLIATINIQEKHSSLHITASHPRDSAVYICAVDGTGGTKKTSYDKVIFGPGTSLSVIP
Vbeta: KAGVTQTPRYLIKTRGQQVTLSCSPISGHRSVSWYQQTPGQGLQFLFEYFSETQRNKGNFPGRFSGRQFSNSRSEMNVSTLELGDSALYLCASSLRGLAAYNEQFFGPGTRLTVL
B7: HA2-MJ7-DP19 (TCR, V domains shown)
Valpha: ELKVEQNPLFLSMQEGKNYTIYCNYSTTSDRLYWYRQDPGKSLESLFVLLSNGAVKQEGRLMASLDTKARLSTLHITAAVHDLSATYFCAVDTNMRFGAGTRLTVKP
Vbeta: NAGVTQTPKFQVLKTGQSMTLQCAQDMNHNSMYWYRQDPGMGLRLIYYSASEGTTDKGEVPNGYNVSRLNKREFSLRLESAAPSQTSVYFCASSEIQGEKLFFGSGTQLSVL
B8: HA2-MJ2-DP1 (TCR, V domains shown)
Valpha: ELKVEQNPLFLSMQEGKNYTIYCNYSTTSDRLYWYRQDPGKSLESLFVLLSNGAVKQEGRLMASLDTKARLSTLHITAAVHDLSATYFCAVRMGYGGSQGNLIFGKGTKLSVKP
Vbeta: GAGVSQSPRYKVAKRGQDVALRCDPISGHVSLFWYQQALGQGPEFLTYFQNEAQLDKSGLPSDRFFAERPEGSVSTLKIQRTQQEDSAVYLCASSFASQPQHFGDGTRLSIL
B9: HA2-MJ14-DP317 (TCR, V domains shown)
Valpha: AQTVTQSQPEMSVQEAETVTLSCTYDTSESDYYLFWYKQPPSRQMILVIRQEAYKQQNATENRFSVNFQKAAKSFSLKISDSQLGDAAMYFCAYRSERYSTLTFGKGTMLLVSP
Vbeta: SQTIHQWPATLVQPVGSPLSLECTVEGTSNPNLYWYRQAAGRGLQLLFYSVGIGQISSEVPQNLSASRPQDRQFILSSKKLLLSDSGFYLCAWSVPYLAGGKRPDTQYFGPGTRLTVL
B10: HA2-MJ2-DP22 (TCR, V domains shown)
Valpha: GQQLNQSPQSMFIQEGEDVSMNCTSSSIFNTWLWYKQEPGEGPVLLIALYKAGELTSNGRLTAQFGITRKDSFLNISASIPSDVGIYFCAGPFGYGGSQGNLIFGKGTKLSVKP
Vbeta: GAGVSQSPRYKVAKRGQDVALRCDPISGHVSLFWYQQALGQGPEFLTYFQNEAQLDKSGLPSDRFFAERPEGSVSTLKIQRTQQEDSAVYLCASSLIGRGWDGYTFGSGTRLTVV
B11: HA2-MJ9-DP5 (TCR, V domains shown)
Valpha: KQEVTQIPAALSVPEGENLVLNCSFTDSAIYNLQWFRQDPGKGLTSLLLIQSSQREQTSGRLNASLDKSSGRSTLYIAASQPGDSATYLCAVRPKNYGGSQGNLIFGKGTKLSVKP
Vbeta: NAGVMQNPRHLVRRRGQEARLRCSPMKGHSHVYWYRQLPEEGLKFMVYLQKENIIDESGMPKERFSAEFPKEGPSILRIQQVVRGDSAAYFCASSLTSGSSNEQFFGPGTRLTVL

Target: T1, MYO1G (HA-2 REF; MYO1G(V) variant) …
Assay: multimer staining

Binder | binding result
B1 | recognises
B2 | recognises
B3 | recognises
B4 | recognises
B5 | recognises
B6 | recognises
B7 | recognises
B8 | recognises
B9 | recognises
B10 | recognises
B11 | recognises

Reference: US20240197877A1 (published 2024)
